Data reported in ChEMBL document CHEMBL5137076, “SLL-627 Is a Highly Selective and Potent κ Opioid Receptor (KOR) Agonist with an Unexpected Nonreduction in Locomotor Activity” (2022).

Species on record: Homo sapiens
Experiment: Selectivity index, ratio of Ki for displacement of [3H]DPDPE from rat DOR expressed in CHO cell membranes to Ki for displacement of [3H]U69593 from human KOR expressed in CHO cell membranes

Compound	Ratio Ki
COc1ccc2c3c1O[C@H]1[C@@]4(OC)CC[C@@]5(C[C@@]4(C)[C@H](O)c4ccc(C(F)(F)F)cc4)[C@@H](C2)N(CC2CC2)CC[C@]315	1460
COc1ccc2c3c1O[C@H]1[C@@]4(OC)CC[C@@]5(C[C@@]4(C)[C@H](O)c4ccc(Cl)c(Cl)c4)[C@@H](C2)N(CC2CC2)CC[C@]315	0.04
COc1ccc2c3c1O[C@H]1[C@@]4(OC)CC[C@@]5(C[C@@]4(C)C(=O)c4ccc6ccccc6c4)[C@@H](C2)N(CC2CC2)CC[C@]315	4
COc1ccc2c3c1O[C@H]1[C@@]4(OC)CC[C@@]5(C[C@@]4(C)C(=O)c4ccc(C)cc4)[C@@H](C2)N(CC2CC2)CC[C@]315	> 120
COc1ccc([C@@H](O)[C@]2(C)C[C@@]34CC[C@]2(OC)[C@@H]2Oc5c(OC)ccc6c5[C@@]23CCN(CC2CC2)[C@@H]4C6)cc1	29
COc1ccc2c3c1O[C@H]1[C@@]4(OC)CC[C@@]5(C[C@@]4(C)C(=O)c4ccc(-c6ccccc6)cc4)[C@@H](C2)N(CC2CC2)CC[C@]315	> 22
COc1ccc2c3c1O[C@H]1[C@@]4(OC)CC[C@@]5(C[C@@]4(C)C(=O)c4ccc(C(C)C)cc4)[C@@H](C2)N(CC2CC2)CC[C@]315	2
COc1ccc2c3c1O[C@H]1[C@@]4(OC)CC[C@@]5(C[C@@]4(C)[C@H](O)c4ccc(C)cc4)[C@@H](C2)N(CC2CC2)CC[C@]315	> 382
COc1ccc2c3c1O[C@H]1[C@@]4(OC)CC[C@@]5(C[C@@]4(C)C(=O)c4ccccc4)[C@@H](C2)N(CC2CC2)CC[C@]315	> 250
COc1ccc2c3c1O[C@H]1[C@@]4(OC)CC[C@@]5(C[C@@]4(C)[C@H](O)c4ccc(C(C)C)cc4)[C@@H](C2)N(CC2CC2)CC[C@]315	0.2
COc1ccc2c3c1O[C@H]1[C@@]4(OC)CC[C@@]5(C[C@@]4(C)C(=O)c4ccc(C(F)(F)F)cc4)[C@@H](C2)N(CC2CC2)CC[C@]315	27
COc1ccc2c3c1O[C@H]1[C@@]4(OC)CC[C@@]5(C[C@@]4(C)C=O)[C@@H](C2)N(CC2CC2)CC[C@]315	4.2
COc1ccc2c3c1O[C@H]1[C@@]4(OC)CC[C@@]5(C[C@@]4(C)[C@H](O)c4ccccc4)[C@@H](C2)N(CC2CC2)CC[C@]315	> 1520
COc1ccc(C(=O)[C@]2(C)C[C@@]34CC[C@]2(OC)[C@@H]2Oc5c(OC)ccc6c5[C@@]23CCN(CC2CC2)[C@@H]4C6)cc1	8
COc1ccc2c3c1O[C@H]1[C@@]4(OC)CC[C@@]5(C[C@@]4(C)C(=O)c4cc(C)cc(C)c4)[C@@H](C2)N(CC2CC2)CC[C@]315	3.2
COc1cccc([C@@H](O)[C@]2(C)C[C@@]34CC[C@]2(OC)[C@@H]2Oc5c(OC)ccc6c5[C@@]23CCN(CC2CC2)[C@@H]4C6)c1	52
COc1ccc2c3c1O[C@H]1[C@@]4(OC)CC[C@@]5(C[C@@]4(C)CO)[C@@H](C2)N(CC2CC2)CC[C@]315	25
